# Yeast mating assay B: variants of the scFv Ab-14

Antigen: PDVDLGDISGINAS, a 14-residue peptide of the SARS-CoV-2 spike HR2 region.

Parent: Ab-14, a human scFv built as VH, the linker GGGGSGGGGSGGGGS, VL. Only the CDRs of the light chain vary.
VH: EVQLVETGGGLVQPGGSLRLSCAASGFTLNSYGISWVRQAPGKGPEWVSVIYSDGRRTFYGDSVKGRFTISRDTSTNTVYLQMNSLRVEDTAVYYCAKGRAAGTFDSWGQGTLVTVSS
VL: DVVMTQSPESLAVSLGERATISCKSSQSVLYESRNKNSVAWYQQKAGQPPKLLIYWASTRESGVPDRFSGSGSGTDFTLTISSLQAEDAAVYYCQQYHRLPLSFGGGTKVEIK

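Phage display of a naive human antibody library on the peptide gave the parent. This is the validation round: designs drawn from the data on random variants, tested in the same kind of assay. Group labels follow the data file (Ctrl: baseline library sampled from a position-specific scoring matrix, with some repeated check sequences; En: ensemble of fine-tuned language models; GP: Gaussian process model; HC: hill climbing; Gen: genetic algorithm; Gibbs: Gibbs sampling; a sequence that several methods proposed may carry one label only). AlphaSeq pools MATa yeast showing the antibodies with MATalpha yeast showing the peptide. The frequency of each diploid, read from paired DNA barcodes, reflects how well the two displayed proteins bind. A regression on co-assayed BCL2-family reference pairs converts the normalised counts of each replicate to an apparent Kd. The assay was run in six technical replicates.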

The parent's light chain CDRs are KSSQSVLYESRNKNSVA, WASTRES, QQYHRLPLS; each variant's own CDRs replace them letter for letter.
Each Kd is an estimate from the mating assay, the geometric mean of the replicates in which the pair was seen; lower is stronger.
"nd" marks a missing value. The strain was present, yet no cells mated with the target were sequenced in any replicate, which points to weak or no binding.
The parent sequence was in this pool as ten entries: three were never detected, three once, and four in most replicates, with averages from 2.2 nM to 240 nM.
In the paper, a design with two or fewer of six values counts as a poor binder.
A sequence measured in both rounds can read differently, since the two assays cover different ranges.
As a blank, each scFv also met three strains without target: over all light chain designs, 4% of these pairings were detected, typically at 430 nM and seldom below 38 nM. For each scFv, signals with the empty controls are counted beside the result.

For QLEFERGDAYKQKNSIA / GGTESLH / QQYAWLPLS [En_Gibbs], the assay gave 3.8 nM (6 of 6 replicates; controls 1 of 18).
For MISQLMNMGTFHINSVA / QAQTRNE / QQYDRLPLT [En_Gen], the assay gave 46 nM (5 of 6 replicates; controls 0 of 18).
For KSSQSVWYESRNKNSVA / AASTRES / QQYHRLPLS [Ctrl], the assay gave 8.6 nM (6 of 6 replicates; controls 0 of 18).
For TIGGTLMYGMRNRSNVA / EVSERLN / QQYDRLPLI [En_Gen], the assay gave 93 nM (5 of 6 replicates; controls 1 of 18).
For AIVEDNAGDQKNSSNIA / SVDQRED / QQYQRLPLM [En_Gibbs], the assay gave 7.5 nM (6 of 6 replicates; controls 5 of 18).
For KVHQSQLYESRNINSVA / NASQRCS / QQYHRLPLS [GP_Gibbs], the assay gave 1.6 nM (6 of 6 replicates; controls 3 of 18).
For KIGATLNMMMHKKNNVA / DLVTREN / QQYHRLPLS [En_Gen], the assay gave 7.5 nM (6 of 6 replicates; controls 0 of 18).
For KLSQSTLYESGMKNSVA / NASKREQ / QQYHRLPLS [GP_Gibbs], the assay gave 13 nM (6 of 6 replicates; controls 1 of 18).
For KSSQSVLYESRNKNSVA / WAFTRES / QQYHRLPLS [Ctrl], the assay gave 120 nM (1 of 6 replicates; controls 3 of 18).
For MITGSMENQESNQNPVA / SATCKAP / QQYSRLPLM [En_Gibbs], the assay gave 93 nM (6 of 6 replicates; controls 1 of 18).
For NLQNIGMENSVWKNAIA / DVNIKES / QQYWRLPLL [En_Gibbs], the assay gave 2.9 nM (6 of 6 replicates; controls 0 of 18).
For QITQVQQYDAPNTYNVA / DATVSGR / QQYSQLPLT [En_Gibbs], the assay gave 14 nM (6 of 6 replicates; controls 0 of 18).
For KSSQSVLYESNNKNSVA / WASTREA / QQPHRLPLD [Ctrl], the assay gave nd (0 of 6 replicates; controls 1 of 18).
For SLAESVHLESRNKNSVA / DNSTRES / QHYDRLPLS [En_HC], the assay gave 380 nM (4 of 6 replicates; controls 0 of 18).
For KSSQSVLYESRNKNCVA / WASTRVS / QQYHRLPTS [Ctrl], the assay gave nd (0 of 6 replicates; controls 1 of 18).
For KSSPSEPYEDRNFYSVA / HASQRES / QQYHRLPLS [GP_Gibbs], the assay gave 4.5 nM (6 of 6 replicates; controls 3 of 18).

The remaining entries, values ahead:

5.0 nM (6 of 6 replicates; controls 0 of 18): QLYAVQDLTTKNSNNVA / EQTTREN / QQYHRLPLS [En_HC].
3.7 nM (6 of 6 replicates; controls 1 of 18): KSSQSVGMESRNKNSVA / HASTRES / QQYHRLPLS [Ctrl].
2.3 nM (6 of 6 replicates; controls 3 of 18): KLQGSMPYESRMKNSVA / QASVRES / QQYHRLPLS [GP_Gibbs].
600 nM (2 of 6 replicates; controls 0 of 18): KLMMFMQGYGCMKNNIA / NLSEVAT / QQYAQLPLV [En_Gibbs].
5.2 nM (6 of 6 replicates; controls 1 of 18): IISQSVMFQQTLINSVA / NAQTRED / QQYHRLPLS [En_HC].
590 pM (6 of 6 replicates; controls 1 of 18): KLSQSVLMESRNKNSVA / EASTRCS / QQYHRLPLS [GP_Gen].
1.2 nM (6 of 6 replicates; controls 0 of 18): KVYQSNLYESRNDNNVA / NASLRES / QQYHRLPLS [GP_Gibbs].
nd (0 of 6 replicates; controls 0 of 18): KSIMSVLYESRNKNSVA / WARTRES / GQYHRLPLS [Ctrl].
nd (0 of 6 replicates; controls 0 of 18): KSSQSVLYESRNPNSVA / WASTRES / QQYWRLFLS [Ctrl].
6.4 nM (6 of 6 replicates; controls 1 of 18): KSLQSVLYESRNGNSVA / HASTRED / QQYHRLPLS [GP_HC].
9.5 nM (6 of 6 replicates; controls 0 of 18): TISQVMNTMTRHGNNVA / DLQEREE / QQYFRLPLS [En_Gen].
3.7 nM (6 of 6 replicates; controls 1 of 18): KLSQSFLYESRNWNSVA / AASKRES / QQYHRLPLS [GP_Gibbs].
3.0 nM (6 of 6 replicates; controls 2 of 18): KLMYSKEYEQRNKNSVA / EASVRES / QQYHRLPLS [GP_Gibbs].
1.4 nM (6 of 6 replicates; controls 1 of 18): SLYEAMQTGKLRTSNIA / DVNQQMR / QQYNRLPLM [En_Gibbs].
11 nM (6 of 6 replicates; controls 1 of 18): SISQMSTIESITHNSVA / QTSTRES / QQYDRLPLS [En_HC].
11 nM (6 of 6 replicates; controls 1 of 18): HISESMYYQSRNKNNIA / EMSTRER / QHYDRLPLS [En_HC].
nd (0 of 6 replicates; controls 1 of 18): KSSQSVLYESRNKNAVA / WASTQES / QQYHRLPLS [Ctrl].

The first 4 variants above that were never detected:

{"CDR-L1": "KSSQSVLYESNNKNSVA", "CDR-L2": "WASTREA", "CDR-L3": "QQPHRLPLD", "group": "Ctrl", "Kd": "nd", "replicates with signal": "0 of 6", "control signals": "1 of 18"}
{"CDR-L1": "KSSQSVLYESRNKNCVA", "CDR-L2": "WASTRVS", "CDR-L3": "QQYHRLPTS", "group": "Ctrl", "Kd": "nd", "replicates with signal": "0 of 6", "control signals": "1 of 18"}
{"CDR-L1": "KSIMSVLYESRNKNSVA", "CDR-L2": "WARTRES", "CDR-L3": "GQYHRLPLS", "group": "Ctrl", "Kd": "nd", "replicates with signal": "0 of 6", "control signals": "0 of 18"}
{"CDR-L1": "KSSQSVLYESRNPNSVA", "CDR-L2": "WASTRES", "CDR-L3": "QQYWRLFLS", "group": "Ctrl", "Kd": "nd", "replicates with signal": "0 of 6", "control signals": "0 of 18"}

Reference: Li et al. 2023, doi:10.1038/s41467-023-39022-2. File: FLAb, binding data.